{"sequences": {"note": "The chains behind the UniProt entries cited, without tags or fusion partners.", "UniProt P35372, whole entry": "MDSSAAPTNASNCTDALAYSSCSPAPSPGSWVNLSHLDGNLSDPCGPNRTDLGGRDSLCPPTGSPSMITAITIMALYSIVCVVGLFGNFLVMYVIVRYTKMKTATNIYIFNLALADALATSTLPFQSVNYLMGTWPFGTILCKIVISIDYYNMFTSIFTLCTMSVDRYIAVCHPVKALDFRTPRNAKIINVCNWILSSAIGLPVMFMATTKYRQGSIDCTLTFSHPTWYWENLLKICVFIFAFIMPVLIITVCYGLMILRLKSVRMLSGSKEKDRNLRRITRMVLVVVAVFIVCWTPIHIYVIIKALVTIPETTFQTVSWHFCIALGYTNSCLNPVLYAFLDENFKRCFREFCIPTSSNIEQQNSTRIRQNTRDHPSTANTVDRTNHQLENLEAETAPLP", "UniProt P33535, whole entry": "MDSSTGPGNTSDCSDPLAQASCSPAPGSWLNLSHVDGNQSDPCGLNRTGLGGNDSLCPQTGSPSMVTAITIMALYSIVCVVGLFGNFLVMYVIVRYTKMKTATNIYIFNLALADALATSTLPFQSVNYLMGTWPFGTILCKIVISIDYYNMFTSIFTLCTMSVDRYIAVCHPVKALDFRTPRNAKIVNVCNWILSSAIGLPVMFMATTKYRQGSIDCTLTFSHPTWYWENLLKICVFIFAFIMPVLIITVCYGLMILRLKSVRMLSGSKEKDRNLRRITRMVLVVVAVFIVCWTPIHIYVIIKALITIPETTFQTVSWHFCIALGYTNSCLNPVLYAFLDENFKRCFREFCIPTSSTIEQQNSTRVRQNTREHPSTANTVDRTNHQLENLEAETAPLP"}, "source": "patent US6270979A", "about": "(priority 1998, dated 2001)", "key": {"opioid μ receptor": {"molecular_target": "opioid μ receptor (Homo sapiens, UniProt P35372)", "format": "cell-based"}, "[1]": {"molecular_target": "epitope-tagged μ opioid receptor (EE-μR) (Rattus norvegicus, UniProt P33535)", "format": "cell-based"}}, "note": "Entries after “also recorded” stand apart in the source; their conditions may differ.", "data": [{"substance": "D-Phe-Cys-Tyr-D-Trp-Arg-Thr-Pen-ThrNH2 [CTAP]", "values": [{"measurement": "classification of opioid drug (agonist / neutral / negative antagonist)", "setting": "opioid μ receptor", "result": "neutral antagonists"}, {"measurement": "effect on cAMP levels / constitutive activity in morphine pretreated cells", "setting": "opioid μ receptor", "result": "do not affect cAMP levels; also recorded: no significant effect on cAMP levels in dependent cells"}, {"measurement": "effect on μ receptor (μ*) phosphorylation", "setting": "[1]", "result": "did not block μ* phosphorylation; also recorded: consistently lowered the level of μ* phosphorylation relative to naloxone"}]}]}
